PABP1 MLLE inh: inhibitors of PABP1 MLLE–PAM2 peptide binding, primary screen, biochemical, fluorescence polarization, FITC-PAM2, GST-MLLE; hit rate 0.36% among 360,000; Polyadenylate-binding protein 1 (Homo sapiens), P11940; inhibition, % at 20 µM; in the data active means inhibition above about 35%, passing the limit was not always enough;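 further: plate controls were DMSO wells with GST-MLLE for no effect and wells lacking GST-MLLE protein for full effect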
PABP FP inh: PABP poly(A) RNA binding inhibitors, primary screen, biochemical, fluorescence polarization, uHTS. Polyadenylate-binding protein 1 (Homo sapiens), P11940. calls only at 35 µM. hit rate 1% among 290,000. AID 2014, 2009;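 further: calls also rest on retests at 20 µM and on dose response follow-up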
Pemphigus Ab inh: inhibitors of pemphigus antibody binding to DSG3, primary screen, biochemical, bead-based, flow cytometry, scFv-GFP; Desmoglein-3 (Homo sapiens), P32926; DSG3-coupled beads, scFv-anti-DSG3-GFP binding; stronger effect = lower value; binding (percent of control), % at 10 µM; hit rate 0.48% among 310,000; AID 588358, 2011;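 active means binding more than 3 SD below its plate's average and above zero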
Yeast UUG start-1: yeast start codon fidelity modulation | S. cerevisiae UUG-firefly luciferase reporter, luminescence/redox ratio | activity score, % at 18.7 µM | 0.13% of 350,000 active | AID 602363;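 active means replicate mean at a twofold rise or more, about +100% in these data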;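 further: firefly luciferase made from a UUG start codon reports start codon fidelity; reporter light over untreated wells divided by growth signal over untreated wells; some hits fall short of that in this replicate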
eIF4H FP inh: human eIF4H binding inhibitors, primary screen, translation initiation inhibitor project, biochemical, uHTS, fluorescence polarization; Eukaryotic translation initiation factor 4H (Homo sapiens), Q15056; eIF4H fluorescence polarization binding assay; inhibition, % at 35 µM; hit rate 0.94% among 290,000;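 further: calls also rest on retests at 20 µM and on dose response follow-up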
Yeast UUG start-2: enhancers of UUG start codon usage in yeast, dose response, S. cerevisiae, UUG firefly luciferase, cherry-pick, set 2 | shares compounds with Yeast UUG start-1 | 540 tested, under 10 active | AID 652061, 2013 | luminescence, 4 h; 100% means double the DMSO signal | activation, % at 38 µM;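 active means signal increase whose fitted curve reaches an absolute level of 40 at a concentration under 10 µM; inactive means activity opposite to the expected increase, or the rest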
The depositor's hits bear a star; i = inactive; x = not tested or not shown; ! = repeats disagree. Hits are enriched below; roughly 1.5% of the tested compounds scored in any of these assays. Unless noted, how the calls were made is not given here.

Sequences of proteins named here, by UniProt entry; tags and fusion partners are left off.
Polyadenylate-binding protein 1 (Homo sapiens), P11940, UniProt P11940, whole entry, looked up: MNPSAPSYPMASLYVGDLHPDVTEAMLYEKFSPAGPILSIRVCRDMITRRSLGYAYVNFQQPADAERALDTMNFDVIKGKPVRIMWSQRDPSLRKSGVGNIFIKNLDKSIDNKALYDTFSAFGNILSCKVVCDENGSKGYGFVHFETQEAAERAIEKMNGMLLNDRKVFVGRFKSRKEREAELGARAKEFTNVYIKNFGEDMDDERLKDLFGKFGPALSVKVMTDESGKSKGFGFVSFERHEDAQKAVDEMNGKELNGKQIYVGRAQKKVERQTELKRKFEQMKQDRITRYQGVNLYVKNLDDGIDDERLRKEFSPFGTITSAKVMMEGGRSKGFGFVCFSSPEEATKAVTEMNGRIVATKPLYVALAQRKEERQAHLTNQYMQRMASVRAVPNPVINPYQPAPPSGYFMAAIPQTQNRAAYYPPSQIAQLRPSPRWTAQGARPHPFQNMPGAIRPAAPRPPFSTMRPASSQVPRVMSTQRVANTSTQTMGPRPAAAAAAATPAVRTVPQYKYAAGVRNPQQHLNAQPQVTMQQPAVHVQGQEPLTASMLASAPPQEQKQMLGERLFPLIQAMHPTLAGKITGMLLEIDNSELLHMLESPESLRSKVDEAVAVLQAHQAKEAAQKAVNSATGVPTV
Desmoglein-3 (Homo sapiens), P32926, UniProt P32926, whole entry, looked up: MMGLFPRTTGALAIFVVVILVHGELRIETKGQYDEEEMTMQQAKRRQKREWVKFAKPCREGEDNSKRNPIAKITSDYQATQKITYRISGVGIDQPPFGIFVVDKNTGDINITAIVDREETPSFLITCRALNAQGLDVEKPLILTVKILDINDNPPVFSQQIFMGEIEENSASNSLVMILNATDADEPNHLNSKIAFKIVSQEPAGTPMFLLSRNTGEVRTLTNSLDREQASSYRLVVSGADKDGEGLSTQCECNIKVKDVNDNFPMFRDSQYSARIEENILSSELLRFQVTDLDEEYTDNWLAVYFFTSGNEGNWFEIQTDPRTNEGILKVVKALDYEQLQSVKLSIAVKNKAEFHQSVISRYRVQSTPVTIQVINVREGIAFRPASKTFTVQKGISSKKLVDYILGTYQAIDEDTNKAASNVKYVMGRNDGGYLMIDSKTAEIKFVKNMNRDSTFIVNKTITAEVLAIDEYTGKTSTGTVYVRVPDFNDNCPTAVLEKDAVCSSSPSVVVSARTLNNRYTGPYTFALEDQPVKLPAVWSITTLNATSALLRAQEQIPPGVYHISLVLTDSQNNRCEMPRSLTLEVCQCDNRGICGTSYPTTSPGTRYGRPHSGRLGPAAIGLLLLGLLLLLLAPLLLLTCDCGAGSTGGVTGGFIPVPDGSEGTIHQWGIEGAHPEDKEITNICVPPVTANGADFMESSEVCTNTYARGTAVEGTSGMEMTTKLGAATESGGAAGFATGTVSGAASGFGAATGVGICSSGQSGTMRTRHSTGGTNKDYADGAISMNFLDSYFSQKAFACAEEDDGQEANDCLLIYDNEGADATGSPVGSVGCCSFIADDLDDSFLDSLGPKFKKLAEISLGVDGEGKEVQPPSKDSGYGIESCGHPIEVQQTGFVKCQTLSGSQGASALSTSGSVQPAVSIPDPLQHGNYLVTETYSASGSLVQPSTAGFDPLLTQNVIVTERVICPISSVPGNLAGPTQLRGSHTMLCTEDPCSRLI

Short forms: A = PABP1 MLLE inh; B = PABP FP inh; C = Pemphigus Ab inh; D = Yeast UUG start-1; E = eIF4H FP inh; F = Yeast UUG start-2
Cn1nnnc1SCC(=O)c1cccs1
  A: -108.8	B: i	C: 107.8	D: -18.0	E: -11.6	F: x

COc1cc(C(=O)OCC(=O)c2cc(C)n(CC3CCCO3)c2C)cc(OC)c1C (configuration not stated)
  A: -8.0	B: x	C: x	D: 106.7*	E: x	F: 6.0

COc1cc(C)ccc1OCC(=O)OCC(=O)c1cc(C)n(CC2CCCO2)c1C (configuration not stated)
  A: 5.1	B: x	C: x	D: 5.9	E: x	F: x

Cc1ccc(-c2cnc3c(c2)C(=O)N([C@@H](C)CO)C[C@@H](C)[C@H](CN(C)C(=O)CN(C)C)O3)cc1
  A: x	B: x	C: x	D: 162.7*	E: x	F: i

C[C@@H]1CN([C@@H](C)CO)C(=O)c2cc(C#CCC3CCCC3)cnc2O[C@@H]1CN(C)C(=O)CN(C)C
  A: x	B: x	C: x	D: 124.5*	E: x	F: i

O=C(Nc1ccc(F)cc1)N[C@H]1CC[C@@H](CCNS(=O)(=O)c2ccccc2F)O[C@@H]1CO
  A: x	B: x	C: x	D: -7.9	E: x	F: x

CS(=O)(=O)Nc1cccc(NC(=O)c2ccc(-n3ccnc3)c3ccoc23)c1
  A: 7.8	B: x	C: x	D: 115.1*	E: x	F: -8.2

O=C(NCC1CC1)c1ccc(-n2ccnc2)c2ccoc12
  A: 13.1	B: x	C: x	D: 162.9*	E: x	F: -7.2

Cn1nccc1-c1ccc(C(=O)Nc2cccc(NS(C)(=O)=O)c2)c2occc12
  A: 4.5	B: x	C: x	D: -15.0	E: x	F: x

C[C@@H]1CN([C@H](C)CO)C(=O)CCCn2nncc2CO[C@H]1CN(C)C(=O)Nc1ccc(-c2cccs2)cc1
  A: x	B: x	C: x	D: -1.2	E: x	F: x

Record cards, from the list above.
O=C(NCC1CC1)c1ccc(-n2ccnc2)c2ccoc12 is entered as PABP1 MLLE inh: 13.1; PABP FP inh: x; Pemphigus Ab inh: x; Yeast UUG start-1: 162.9*; eIF4H FP inh: x; Yeast UUG start-2: -7.2
CS(=O)(=O)Nc1cccc(NC(=O)c2ccc(-n3ccnc3)c3ccoc23)c1 is entered as PABP1 MLLE inh: 7.8; PABP FP inh: x; Pemphigus Ab inh: x; Yeast UUG start-1: 115.1*; eIF4H FP inh: x; Yeast UUG start-2: -8.2

More structures:
Short forms: A = PABP1 MLLE inh; B = PABP FP inh; C = Pemphigus Ab inh; D = Yeast UUG start-1; E = eIF4H FP inh; F = Yeast UUG start-2
Cc1ccc(S(=O)(=O)N[C@H]2CC[C@@H](CCNC(=O)c3ccc4c(c3)OCO4)O[C@@H]2CO)cc1
  A: x	B: x	C: x	D: 169.7*	E: x	F: i

C[C@@H]1CN([C@H](C)CO)C(=O)Cc2cc(NC(=O)c3ccncc3)ccc2O[C@@H]1CN(C)C(=O)Nc1ccccc1
  A: x	B: x	C: x	D: -0.3	E: x	F: x

Cc1cnn(Cc2ccccc2)c1N
  A: -3.6	B: i	C: 99.3	D: 604.9*	E: 0.7	F: -6.5

Cc1ccc(S(=O)(=O)Nc2ccc3c(c2)C(=O)N([C@@H](C)CO)C[C@H](C)[C@@H](CN(C)C(=O)C2CCCCC2)OCCCC[C@H](C)O3)cc1
  A: x	B: x	C: x	D: 1.4	E: x	F: x

COc1cc(C(C#N)N2N=C(c3ccccc3)CC2c2ccccc2)ccc1O (configuration not stated)
  A: 3.0	B: i	C: 101.8	D: -10.8	E: -6.1	F: x

COc1ccc(C(C#N)N2CCC(c3ccccc3)=N2)cc1 (configuration not stated)
  A: 4.4	B: i	C: 99.9	D: 182.7*	E: -5.0	F: -4.2

O=C(CNC(=O)c1ccccc1F)N/N=C/c1ccco1
  A: -7.7	B: i	C: 97.8	D: -17.2	E: -3.0	F: x

O=C(CNC(=O)c1ccccc1Br)N/N=C/c1ccco1
  A: -2.3	B: i	C: 99.4	D: 308.0*	E: -4.1	F: -10.8

COc1ccc(CCNS(=O)(=O)c2ccc(Br)cc2)cc1OC
  A: -7.1	B: i	C: 114.5	D: 16.3	E: 2.5	F: x

COc1ccc(CCNS(=O)(=O)c2ccc(OC)c(OC)c2)cc1OC
  A: -10.9	B: i	C: 111.7	D: -20.4	E: -9.3	F: x

Continuation:
Short forms: A = PABP1 MLLE inh; B = PABP FP inh; C = Pemphigus Ab inh; D = Yeast UUG start-1; E = eIF4H FP inh; F = Yeast UUG start-2
COc1ccc(CCNS(=O)(=O)c2ccccc2)cc1OC
  A: 4.6	B: i	C: 97.3	D: 705.5*	E: 3.5	F: -4.6

COc1ccc(CCNS(=O)(=O)c2ccc(Cl)cc2)cc1OC
  A: 8.8	B: i	C: 97.9	D: -13.8	E: 1.3	F: -7.2

CCN(CC)S(=O)(=O)c1ccc(NC(=O)COC(=O)CCc2cc(OC)c(OC)c(OC)c2)cc1
  A: 11.5	B: i	C: 124.7	D: x	E: -4.0	F: 2.1

COc1cc(CCC(=O)OCC(=O)Nc2cccc(S(=O)(=O)N(C)C)c2)cc(OC)c1OC
  A: 5.7	B: i	C: 104.0	D: x	E: -8.5	F: x

CO[C@@H]1CN(C)C(=O)c2cc(NS(C)(=O)=O)ccc2OC[C@@H](C)N(C(=O)C2CCCCC2)C[C@H]1C
  A: x	B: x	C: x	D: 1.2	E: x	F: x

Cc1ccc(OCCCCn2c(CO)nc3ccccc32)cc1
  A: 3.8	B: i	C: x	D: 130.0*	E: -2.8	F: 4.4

O=C(NNc1c(Cl)cc(Cl)cc1Cl)c1n[nH]c(=O)c2ccccc12
  A: 8.2	B: i	C: 93.0	D: 209.1*	E: 0.2	F: -3.3

NNC(=O)c1n[nH]c(=O)c2ccccc12
  A: -12.0	B: i	C: 104.3	D: -21.4	E: -10.8	F: x

C[C@H]1CN([C@@H](C)CO)S(=O)(=O)c2ccc(-c3cccnc3)cc2O[C@H]1CN(C)Cc1cccnc1
  A: x	B: x	C: x	D: -14.5	E: x	F: x

Cc1ccccc1S(=O)(=O)N[C@@H]1CC[C@H](CCn2cc(-c3ccc(F)cc3)nn2)O[C@H]1CO
  A: x	B: x	C: x	D: -4.0	E: x	F: x

CCN1CCN(Cc2ccc(NC(=O)c3ccc(C)c(NC(=O)N4CCNC4=O)c3)cc2C(F)(F)F)CC1
  A: -1.4	B: i	C: 105.3	D: 130.6*!	E: -3.3	F: 13.2

From PubChem BioAssay
